Earlier results as cited in patent publication US20210137911A1, “NOVEL CHRONOTHERAPY BASED ON CIRCADIAN RHYTHMS” (THE TRUSTEES OF THE UNIVERSITY OF PENNSYLVANIA, priority 2014, published 2021).
Read-outs that look alike come from different tables or passages of the source.

Settings: cited from earlier work

| Substance | ½ Life (half-life of therapeutic compound as listed in Table 1) [h] | ½ Life (in vivo) [h] |
| --- | --- | --- |
| Gentamicin | 3 |  |
| Iron Dextran |  | 5 |
